# From patent US6610744B2, “Methods of treatment with compounds having RARα receptor specific or selective activity” (Allergan, Inc., priority 1995, dated 2003)
# Protein sequences, listed by entry. Tags and fused reporters are not part of them.
# UniProt P10826, whole entry, species assumed: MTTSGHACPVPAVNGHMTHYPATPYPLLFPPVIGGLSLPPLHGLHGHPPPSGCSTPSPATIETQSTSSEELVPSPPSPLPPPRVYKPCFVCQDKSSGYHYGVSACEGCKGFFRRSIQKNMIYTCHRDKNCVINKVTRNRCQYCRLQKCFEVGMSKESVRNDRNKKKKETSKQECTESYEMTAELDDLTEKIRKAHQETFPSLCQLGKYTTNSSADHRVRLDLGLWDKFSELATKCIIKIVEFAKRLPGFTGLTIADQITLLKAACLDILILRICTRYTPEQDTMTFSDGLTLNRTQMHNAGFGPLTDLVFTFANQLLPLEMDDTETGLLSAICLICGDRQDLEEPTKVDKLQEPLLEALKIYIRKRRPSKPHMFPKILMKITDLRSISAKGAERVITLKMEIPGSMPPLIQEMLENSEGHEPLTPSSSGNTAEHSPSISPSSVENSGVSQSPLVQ
# UniProt P13631, whole entry, species assumed: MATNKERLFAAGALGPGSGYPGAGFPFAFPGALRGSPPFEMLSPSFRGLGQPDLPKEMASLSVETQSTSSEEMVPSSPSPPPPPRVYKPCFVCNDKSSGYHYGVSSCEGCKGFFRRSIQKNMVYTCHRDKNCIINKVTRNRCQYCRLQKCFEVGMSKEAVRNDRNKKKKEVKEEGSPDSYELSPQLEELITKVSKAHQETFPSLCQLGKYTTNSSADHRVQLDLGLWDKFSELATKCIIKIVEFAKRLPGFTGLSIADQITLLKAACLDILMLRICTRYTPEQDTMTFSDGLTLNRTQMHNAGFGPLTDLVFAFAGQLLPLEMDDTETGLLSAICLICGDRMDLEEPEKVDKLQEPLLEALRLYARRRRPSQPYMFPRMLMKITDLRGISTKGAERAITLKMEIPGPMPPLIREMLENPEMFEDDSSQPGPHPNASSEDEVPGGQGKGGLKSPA
# UniProt P10276, whole entry, species assumed: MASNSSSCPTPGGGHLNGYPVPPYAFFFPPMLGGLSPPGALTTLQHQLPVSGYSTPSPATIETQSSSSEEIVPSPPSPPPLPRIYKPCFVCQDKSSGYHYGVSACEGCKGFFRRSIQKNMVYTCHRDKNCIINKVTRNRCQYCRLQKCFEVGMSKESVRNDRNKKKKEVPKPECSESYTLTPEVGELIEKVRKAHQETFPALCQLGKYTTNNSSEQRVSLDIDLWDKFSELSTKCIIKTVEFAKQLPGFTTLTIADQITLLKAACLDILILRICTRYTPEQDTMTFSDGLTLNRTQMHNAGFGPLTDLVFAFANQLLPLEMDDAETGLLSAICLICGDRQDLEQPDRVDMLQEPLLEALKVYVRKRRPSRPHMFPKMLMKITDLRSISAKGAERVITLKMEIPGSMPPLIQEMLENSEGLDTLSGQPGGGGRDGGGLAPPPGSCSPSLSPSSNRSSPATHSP
# Assays:
# RARβ = target: T1, RARβ (Homo sapiens, UniProt P10826); test: Ligand binding assay, RARβ
# T1 construct: made in house; host or cells: Baculovirus expression (insect cell extract)
# Method: (§1) All binding assays were performed in a similar fashion. All six receptor types were derived from the expressed receptor type (RARα, β, Γ and RXRα, β, Γ) expressed in Baculovirus. Stock solutions of all compounds were prepared as 10 mM ethanol solutions and serial dilutions carried out into 1:1 DMSO; ethanol. Assay buffers consisted of the following for all six receptor assays: 8% glycerol, 120 mM KCl 8 mM Tris, 5 mM CHAPS 4 mM DTT and 0.24 mM PMSF, pH-7.4@ room temperature.
# (§2) All receptor binding assays were performed in the same manner. The final assay volume was 250 μl and contained from 10-40 μg of extract protein depending on receptor being assayed along with 5 nM of [^3H] all-trans retinoic acid or 10 nM [^3H] 9-cis retinoic acid and varying concentrations of competing ligand at concentrations that ranged from 0-10^−5 M. The assays were formatted for a 96 well minitube system. Incubations were carried out at 4° C. until equilibrium was achieved. […] The amount of receptor-ligand complex was determined by liquid scintillation counting of hydroxyapitite pellet.
# (§3) After correcting for non-specific binding, IC50 values were determined. […] The IC50 value was determined graphically from a loglogit plot of the data. The […] were determined by application of the Cheng-Prussof equation to the IC50 values, the labeled ligand concentration and the Kd of the labeled ligand. […]
# RARΓ = target: T2, RARΓ (Homo sapiens, UniProt P13631); test: Ligand binding assay, RARΓ
# T2 construct: made in house; host or cells: Baculovirus expression (insect cell extract)
# Method: as §1, §2, §3
# RARα = target: T3, RARα (Homo sapiens, UniProt P10276); test: Ligand binding assay, RARα
# T3 construct: made in house; host or cells: Baculovirus expression (insect cell extract)
# Method: as §1, §2, §3
substance,measurement,setting,value
"2-Fluoro-4-[(3′,5′-di-t-butyl)phenylcarbamoyl]benzoic acid [Compound 46]",Kd,RARβ,> 1 µM
same,Kd,RARΓ,> 1 µM
same,Kd,RARα,0.026 µM
